Tests used:
[1] = tested on: CYP2C19; experiment: dosing recommendation per CYP2C19 metabolizer subgroup as percentage of usual population dose (Equations 4-6)
Text: Assuming the goal is to maintain the same AUC for all three subpopulations of patients, the following subpopulation dosing relationships hold: DPM=DEM*(AUCEM/AUCPM) OR DPM=DEM*R if R=(AUCEM/AUCPM) (Equation 2) DIM=DEM*(AUCEM/AUCIM) OR DIM=DEM*S if S=(AUCEM/AUCIM) (Equation 3)
By substituting equations 2 and 3 into equation 1, and then rearranging the equation to solve for the percent dose adjustment needed for each subgroup relative to the population dose: DEM(%)=100/(fEM+fIM*S+fPM*R) (Equation 4) DPM(%)=R*DEM (Equation 5) DIM(%)=S*DEM (Equation 6) Equations 4, 5, and 6 show how the dosing for the more homogeneous subgroups is determined and how the dosing results are expressed as a fraction of the clinician's usual heterogeneous whole group dosages. Determining “Minimal Dose Adjustment Units”
Example: The approach in the previous section leads to individualized initial drug dose recommendations for each of the 3 subgroups (extensive, poor and intermediate metabolizers). Each subgroup represents a specific number of functional alleles for the specific DME (extensive metabolizers have 2 functional, intermediate metabolizers have 1 functional and poor metabolizers have 0 functional). The resultant dosing recommendations are expressed as percentages of the clinician's usual starting dose. It is possible to investigate the effect of increasing numbers of non-functional alleles using these new dosing recommendations. For example, if DRX % is the dosing recommendation for subgroup X expressed as a percentage of the clinician's usual starting dose then the following are true: Effect of […] 1 non-functional allele=(DREM %−DRIM %)/DREM % Effect of 2 non-functional allele=(DREM %−DRPM %)/DREM % Below is a spreadsheet (Table 3) that examines this for CYP2D6, CYP2C19 and CYP2C9. […] 2C9 has 2 MDA units per non-functional allele.

[2] = tested on: CYP2D6; settings: human

Structure (SMILES)	2 al/1 al ([1]; human)	UM (%) dosing recommendation ([1]; human) [%]	2 al/1 al [2]	UM (%) dosing recommendation ([1]; CYP2C19, head prints UM, percent of usual dose) [%]	2 al/1 al ([1]; CYP2C19, ratio of the two effects)	EM (%) dosing recommendation [2] [%]
CN(C)CCC=C1c2ccccc2COc2ccccc21 [doxepin]	4.07	105	2.02			
CNCCC(Oc1ccc(C(F)(F)F)cc1)c1ccccc1 (stereo not shown) [fluoxetine]			2.23	107	1.76	107

— patent US8589175B2, “Optimization and individualization of medication selection and dosing” (Children's Hospital Medical Center, priority 2005, dated 2013)
